Assay [1] deals with HDAC1 (Homo sapiens, UniProt Q13547). Description: In vitro HDAC inhibition preincubation assay (ZMAL substrate).
Assay [2] addresses T1, human recombinant HDAC6 (Homo sapiens, UniProt Q9UBN7).
T1 sequence (Q9UBN7 1-1215): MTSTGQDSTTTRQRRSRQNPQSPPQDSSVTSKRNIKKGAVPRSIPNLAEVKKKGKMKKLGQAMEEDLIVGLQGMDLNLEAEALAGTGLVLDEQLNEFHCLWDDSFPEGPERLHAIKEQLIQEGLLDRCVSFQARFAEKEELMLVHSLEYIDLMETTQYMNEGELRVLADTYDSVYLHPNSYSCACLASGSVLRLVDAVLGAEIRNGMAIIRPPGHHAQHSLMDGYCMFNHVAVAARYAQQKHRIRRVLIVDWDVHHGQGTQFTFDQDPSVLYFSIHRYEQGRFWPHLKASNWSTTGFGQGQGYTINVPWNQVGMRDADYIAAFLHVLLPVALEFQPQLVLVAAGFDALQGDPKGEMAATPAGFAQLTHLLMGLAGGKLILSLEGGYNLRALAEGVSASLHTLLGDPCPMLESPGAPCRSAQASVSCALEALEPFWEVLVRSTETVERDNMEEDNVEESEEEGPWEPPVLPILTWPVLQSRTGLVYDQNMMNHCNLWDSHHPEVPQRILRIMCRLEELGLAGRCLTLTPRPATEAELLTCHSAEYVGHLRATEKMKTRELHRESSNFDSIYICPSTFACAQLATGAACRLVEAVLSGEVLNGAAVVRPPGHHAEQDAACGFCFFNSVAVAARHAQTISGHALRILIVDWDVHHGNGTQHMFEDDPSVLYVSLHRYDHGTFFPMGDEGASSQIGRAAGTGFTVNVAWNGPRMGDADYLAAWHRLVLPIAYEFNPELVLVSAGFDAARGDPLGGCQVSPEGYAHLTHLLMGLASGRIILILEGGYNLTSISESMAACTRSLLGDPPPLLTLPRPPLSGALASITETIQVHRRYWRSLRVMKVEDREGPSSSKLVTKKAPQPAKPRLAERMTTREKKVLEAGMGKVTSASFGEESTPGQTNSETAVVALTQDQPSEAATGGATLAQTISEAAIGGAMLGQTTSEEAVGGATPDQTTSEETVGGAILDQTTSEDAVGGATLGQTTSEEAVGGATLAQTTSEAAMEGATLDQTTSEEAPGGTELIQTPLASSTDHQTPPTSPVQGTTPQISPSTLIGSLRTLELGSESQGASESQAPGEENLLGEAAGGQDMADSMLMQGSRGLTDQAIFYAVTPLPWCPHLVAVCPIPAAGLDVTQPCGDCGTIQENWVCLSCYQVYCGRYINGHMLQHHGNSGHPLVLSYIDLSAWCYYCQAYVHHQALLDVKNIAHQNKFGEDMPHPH
The assay is described as above.

Amino acid sequences for entries named in this document (tags omitted).
UniProt Q13547, whole entry: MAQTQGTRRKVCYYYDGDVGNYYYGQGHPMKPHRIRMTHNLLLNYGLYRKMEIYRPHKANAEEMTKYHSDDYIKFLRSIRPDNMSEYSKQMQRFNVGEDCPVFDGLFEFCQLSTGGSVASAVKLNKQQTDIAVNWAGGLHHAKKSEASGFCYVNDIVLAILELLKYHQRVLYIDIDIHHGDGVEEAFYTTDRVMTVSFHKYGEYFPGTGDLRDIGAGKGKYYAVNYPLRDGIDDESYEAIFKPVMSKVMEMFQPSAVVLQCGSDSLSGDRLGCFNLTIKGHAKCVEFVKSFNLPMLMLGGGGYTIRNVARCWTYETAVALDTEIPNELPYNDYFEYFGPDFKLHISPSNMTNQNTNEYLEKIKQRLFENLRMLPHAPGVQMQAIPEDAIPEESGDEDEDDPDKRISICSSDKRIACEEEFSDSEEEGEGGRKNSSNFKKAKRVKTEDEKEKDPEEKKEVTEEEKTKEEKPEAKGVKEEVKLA

Assay [3] deals with MCF‐7 cells. Description: Modified wound healing (migration) assay. It is filed as cell-based, human. As to conditions: MCF-7, 10 μM, followed over 97 h, compared to DMSO control. The method, then: In a modified wound healing assay (see Figure 10B and 10C, for representative pictures of the time‐dependent wound closure see SI Figure S12) cells were preincubated with 10 μM of the indicated compounds and cell migration was followed over 97 h and compared to the DMSO treated control cells. […]
temperature and then incubated at 4°C overnight. Membranes were rinsed again three times before applying the secondary anti-rabbit IgG HRP-conjugated mAbs (Santa Cruz Biotechnology, Texas, USA) for 90 min. Primary antibodies were diluted 1:500 and the secondary antibody was diluted 1:20.000. After rinsing of the secondary antibody, membranes were detected using Clarity™ECL Western Blotting Substrate (Bio-Rad). For quantitative determination, the StainFree™ technique was employed (Bio-Rad), as well as normalization, against the housekeeping protein GAPDH, which allows the imaging of whole lysates in SDS-PAGE before blotting and normalization against the total protein. Pixel density analysis was performed with the IMAGE LAB software […]
Migration assay. 3D printed (size: 0.5 mm gap) culture-inserts (custom made) were used for pre- […]
GmbH, Hamburg, Germany), in total. […]
a Axiovert 200 microscope (Carl-Zeiss, Jena, Germany). Migration speed was quantified as reduced scratch wound over time. […]

A word on the IC50: it is the concentration needed to halve the response being measured. `CN(C)c1ccc(C(=O)N(CC(=O)NC(C)(C)C)Cc2ccc(C(=O)Nc3cc(-c4ccncc4)ccc3N)cc2)cc1` [10 c] showed an IC50 in assay [1] of 0.0262 ± 0.0009 µM.
For the compound `CC(=O)Nc1ccc(C(=O)Nc2cc(-c3cccs3)ccc2N)cc1` [6 c], the IC50 in assay [2] is over 10 µM.
Turning to `O=C(CCCCCCC(=O)Nc1ccccc1)NO` [vorinostat, reference compound], the “effect on cell migration (wound closure)” value in assay [3] was “attenuated cell migration comparably and significantly”.

Source of the values: PMC9303312, “Balancing Histone Deacetylase (HDAC) Inhibition and Drug‐likeness: Biological and Physicochemical Evaluation of Class I Selective HDAC Inhibitors” (Chemmedchem, 2022).
